Data reported in patent publication US20120053200A1, “BACE 2 INHIBITORS” (priority 2010, published 2012).

Amino acid sequences for entries named in this document (tags omitted). Residues count along the entry.
UniProt Q6IE75, 63-514 limits assumed: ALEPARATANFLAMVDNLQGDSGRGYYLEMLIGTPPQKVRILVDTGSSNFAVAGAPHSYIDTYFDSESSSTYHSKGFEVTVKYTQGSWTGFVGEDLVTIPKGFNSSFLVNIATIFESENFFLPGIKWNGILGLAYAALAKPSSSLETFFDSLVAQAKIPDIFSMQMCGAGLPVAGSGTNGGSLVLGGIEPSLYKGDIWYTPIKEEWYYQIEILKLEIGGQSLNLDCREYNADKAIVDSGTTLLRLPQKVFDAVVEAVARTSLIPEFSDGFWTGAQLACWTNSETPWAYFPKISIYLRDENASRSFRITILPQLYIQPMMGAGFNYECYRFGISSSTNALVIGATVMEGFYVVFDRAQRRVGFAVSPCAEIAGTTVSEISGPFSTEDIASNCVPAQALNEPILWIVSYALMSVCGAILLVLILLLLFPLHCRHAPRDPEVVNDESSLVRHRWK

Target: BACE2 (Rattus norvegicus, UniProt Q6IE75)
Experiment: Assay for BACE inhibition by measuring cellular TMEM27 cleavage (INS-TMEM27 cells, ELISA of shed TMEM27)
Conditions: read-out: BACE2 IC50; inhibition of human TMEM27 cleavage by endogenous cellular BACE2 in INS1e-derived INS-TMEM27 rat cell line; ELISA of shed TMEM27 in supernatant
Description: Assay for […] Inhibition by Measuring Cellular TMEM27 Cleavage
This assay uses the principle of inhibition of human TMEM27 cleavage by endogenous cellular BACE2 in the Ins1e rat cell line and shedding from the cell surface into the culture medium, followed by detection in an ELISA assay. Inhibition of BACE2 prevents the cleavage and shedding in a dose-dependent manner.
The stable cell line “INS-TMEM27” represents an INS1e-derived cell line with inducible expression (using the TetOn system) of full-length hTMEM27 in a doxycycline-dependent manner. The cells were cultured throughout the experiment in RPMI1640+Glutamax (Invitrogen) Penicillin/Streptomycin, 10% Fetal bovine serum, 100 mM pyruvate, […] beta-mercatptoethanol, 100 micrograms/ml G418 and 100 microgram/ml hygromycin and were grown in adherent culture at 37° C. in a standard CO2 cell culture incubator.
INS-TMEM27 cells were seeded in 96-well plates. […]
An ELISA assay (using a pair of mouse anti-human-TMEM27 antibodies, raised against the extracellular domain of TMEM27) was used for detection of TMEM27 in the culture medium. An IC50 for BACE2 inhibition was calculated using the ELISA readout for each inhibitor concentration with standard curve-fitting software. […]

`Cc1ccc(C2CCCN2C(=O)c2cccc(C(=O)N[C@@H](Cc3ccccc3)[C@H](O)CNCc3cccc(C(F)(F)F)c3)c2)c(C)c1` (stereo partly shown) gave an IC50 of 0.222 µM.
